Data: PMC4981245 (ACS chemical biology, 2016)

Chains of the proteins cited; added tags and fusions are not shown. Residues count along the entry.
UniProt P31424, 21-1203: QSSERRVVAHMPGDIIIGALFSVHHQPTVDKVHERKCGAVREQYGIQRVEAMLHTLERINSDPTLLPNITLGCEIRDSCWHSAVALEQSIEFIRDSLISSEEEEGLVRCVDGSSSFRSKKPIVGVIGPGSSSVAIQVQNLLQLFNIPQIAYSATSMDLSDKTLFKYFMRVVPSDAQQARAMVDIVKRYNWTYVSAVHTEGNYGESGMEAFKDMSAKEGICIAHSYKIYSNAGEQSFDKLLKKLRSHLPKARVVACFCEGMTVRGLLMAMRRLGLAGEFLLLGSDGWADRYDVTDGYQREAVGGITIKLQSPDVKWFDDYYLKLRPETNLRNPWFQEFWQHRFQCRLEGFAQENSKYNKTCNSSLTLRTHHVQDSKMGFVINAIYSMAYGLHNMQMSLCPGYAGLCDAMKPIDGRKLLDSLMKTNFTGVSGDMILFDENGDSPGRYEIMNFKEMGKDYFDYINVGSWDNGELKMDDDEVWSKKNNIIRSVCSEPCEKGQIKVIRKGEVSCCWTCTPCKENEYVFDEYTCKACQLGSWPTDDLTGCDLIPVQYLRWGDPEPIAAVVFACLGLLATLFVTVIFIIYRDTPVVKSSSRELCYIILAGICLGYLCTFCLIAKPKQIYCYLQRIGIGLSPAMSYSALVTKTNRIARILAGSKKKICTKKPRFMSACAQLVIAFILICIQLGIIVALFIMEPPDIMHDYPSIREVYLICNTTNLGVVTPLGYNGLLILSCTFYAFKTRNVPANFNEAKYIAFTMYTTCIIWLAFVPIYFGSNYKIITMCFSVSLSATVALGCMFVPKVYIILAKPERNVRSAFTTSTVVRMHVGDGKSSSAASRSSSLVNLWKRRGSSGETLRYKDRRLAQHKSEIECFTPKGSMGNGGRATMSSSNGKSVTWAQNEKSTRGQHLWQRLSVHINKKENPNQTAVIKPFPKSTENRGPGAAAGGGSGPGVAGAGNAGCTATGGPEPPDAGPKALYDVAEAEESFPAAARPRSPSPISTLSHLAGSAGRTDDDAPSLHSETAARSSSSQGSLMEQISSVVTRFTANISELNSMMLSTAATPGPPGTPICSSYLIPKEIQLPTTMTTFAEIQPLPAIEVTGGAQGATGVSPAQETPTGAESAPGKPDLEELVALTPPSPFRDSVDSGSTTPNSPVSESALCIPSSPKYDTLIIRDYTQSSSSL

How the values were obtained:
mGlu5 [1] = target: T1, mGlu5 (Rattus norvegicus, UniProt P31424); assay type: cell-based; conditions: HEK293A-mGlu5-low, EC80 glutamate (~200 nM)
mGlu5 [2] = target: T1, mGlu5; conditions: previously reported, cited from earlier work
mGlu5 [3] = target: T1, mGlu5; conditions: previously reported; cited from earlier work

Structure (SMILES): Cc1cccc(C#Cc2ccccc2)n1 [6 (MPEP), MPEP, reference compound]
- EC80 glutamate inhibition pIC50 (mGlu5 [1]): 8.23 ± 0.16
- [3H]-mPEPy binding pKi (mGlu5 [2]): 8.02
- Ki (mGlu5 [2]; read-out: [3H]-mPEPy binding Ki (value in brackets)): 9.5 nM
- modulation of glutamate pKB (mGlu5 [3]): 8.55
